{
  "sequences": {"note": "Sequences of proteins named here, by UniProt entry; tags and fusion partners are left off. A change or cut given only in a name is not applied to a line headed by its entry.", "UniProt Q63120": "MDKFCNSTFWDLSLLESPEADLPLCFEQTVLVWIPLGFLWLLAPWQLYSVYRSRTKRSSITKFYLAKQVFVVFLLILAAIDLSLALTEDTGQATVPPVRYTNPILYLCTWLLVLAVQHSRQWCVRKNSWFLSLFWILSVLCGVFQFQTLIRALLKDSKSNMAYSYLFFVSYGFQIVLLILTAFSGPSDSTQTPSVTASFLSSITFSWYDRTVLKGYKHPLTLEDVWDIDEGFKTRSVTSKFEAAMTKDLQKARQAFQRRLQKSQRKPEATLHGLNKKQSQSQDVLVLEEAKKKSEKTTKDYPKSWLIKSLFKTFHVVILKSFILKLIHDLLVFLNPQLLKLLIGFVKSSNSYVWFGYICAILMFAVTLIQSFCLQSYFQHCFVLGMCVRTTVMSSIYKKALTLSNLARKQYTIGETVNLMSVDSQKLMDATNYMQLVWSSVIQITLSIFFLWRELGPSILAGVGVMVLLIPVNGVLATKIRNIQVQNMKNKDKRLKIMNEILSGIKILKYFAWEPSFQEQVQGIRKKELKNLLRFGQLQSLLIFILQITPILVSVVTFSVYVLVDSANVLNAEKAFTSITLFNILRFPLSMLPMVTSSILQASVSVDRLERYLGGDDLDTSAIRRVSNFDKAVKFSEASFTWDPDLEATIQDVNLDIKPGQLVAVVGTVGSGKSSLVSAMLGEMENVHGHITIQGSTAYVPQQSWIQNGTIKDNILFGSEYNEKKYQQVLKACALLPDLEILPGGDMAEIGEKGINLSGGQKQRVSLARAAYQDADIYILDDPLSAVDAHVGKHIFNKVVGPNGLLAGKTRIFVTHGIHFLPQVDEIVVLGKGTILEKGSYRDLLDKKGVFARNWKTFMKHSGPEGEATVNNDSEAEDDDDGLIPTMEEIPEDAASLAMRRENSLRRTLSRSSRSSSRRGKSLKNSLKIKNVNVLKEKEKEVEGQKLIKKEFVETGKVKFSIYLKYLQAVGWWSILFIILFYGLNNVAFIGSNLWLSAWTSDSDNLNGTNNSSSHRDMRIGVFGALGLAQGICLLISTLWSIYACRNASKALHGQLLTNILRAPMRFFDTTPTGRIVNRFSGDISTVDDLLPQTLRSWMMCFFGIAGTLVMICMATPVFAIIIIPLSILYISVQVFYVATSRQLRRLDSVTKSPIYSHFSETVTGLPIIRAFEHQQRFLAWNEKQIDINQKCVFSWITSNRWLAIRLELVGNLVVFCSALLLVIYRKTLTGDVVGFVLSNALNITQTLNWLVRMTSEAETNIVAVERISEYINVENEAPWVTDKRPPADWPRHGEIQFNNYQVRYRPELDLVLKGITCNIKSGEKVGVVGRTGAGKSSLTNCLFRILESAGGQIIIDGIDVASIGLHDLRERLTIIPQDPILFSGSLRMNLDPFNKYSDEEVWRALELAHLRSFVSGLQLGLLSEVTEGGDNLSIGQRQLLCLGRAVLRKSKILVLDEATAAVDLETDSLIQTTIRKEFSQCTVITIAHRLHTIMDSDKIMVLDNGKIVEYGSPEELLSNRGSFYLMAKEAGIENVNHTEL"},
  "source": "paper PMC6161027",
  "about": "“In Vitro Stimulation of Multidrug Resistance-Associated Protein 2 Function Is Not Reproduced In Vivo in Rats” (Pharmaceutics, 2018)",
  "key": {"rat Mrp2": {"target": "rat Mrp2 (Rattus norvegicus, UniProt Q63120)", "conditions": "CP-I 5 µM, 15 min, result in words"}, "human MRP2": {"tested_on": "human MRP2", "conditions": "result in words ref 10; cited from earlier work"}},
  "data": [
    {"smiles": "C[C@]12CC[C@H]3[C@@H](CCC4=CC(=O)CC[C@@]43C)[C@@H]1CC[C@@H]2O", "note": "[testosterone]", "values": [
      {"measurement": "effect on rat Mrp2-mediated CP-I transport in vitro", "setting": "rat Mrp2", "result": "stimulated"},
      {"measurement": "stimulation of CP-I transport in human MRP2 vesicles", "setting": "human MRP2", "result": "significant stimulation"}
    ]}
  ]
}
